Experimental findings from patent US7445897B2, “Sequence variants of multi-drug resistance genes, MDR1 and MRP1, and methods for assessment of drug penetration and disposition” (University of Washington, priority 2004, dated 2008) are described below.

The chains behind the UniProt entries cited, without tags or fusion partners.
UniProt P08183, whole entry S400N: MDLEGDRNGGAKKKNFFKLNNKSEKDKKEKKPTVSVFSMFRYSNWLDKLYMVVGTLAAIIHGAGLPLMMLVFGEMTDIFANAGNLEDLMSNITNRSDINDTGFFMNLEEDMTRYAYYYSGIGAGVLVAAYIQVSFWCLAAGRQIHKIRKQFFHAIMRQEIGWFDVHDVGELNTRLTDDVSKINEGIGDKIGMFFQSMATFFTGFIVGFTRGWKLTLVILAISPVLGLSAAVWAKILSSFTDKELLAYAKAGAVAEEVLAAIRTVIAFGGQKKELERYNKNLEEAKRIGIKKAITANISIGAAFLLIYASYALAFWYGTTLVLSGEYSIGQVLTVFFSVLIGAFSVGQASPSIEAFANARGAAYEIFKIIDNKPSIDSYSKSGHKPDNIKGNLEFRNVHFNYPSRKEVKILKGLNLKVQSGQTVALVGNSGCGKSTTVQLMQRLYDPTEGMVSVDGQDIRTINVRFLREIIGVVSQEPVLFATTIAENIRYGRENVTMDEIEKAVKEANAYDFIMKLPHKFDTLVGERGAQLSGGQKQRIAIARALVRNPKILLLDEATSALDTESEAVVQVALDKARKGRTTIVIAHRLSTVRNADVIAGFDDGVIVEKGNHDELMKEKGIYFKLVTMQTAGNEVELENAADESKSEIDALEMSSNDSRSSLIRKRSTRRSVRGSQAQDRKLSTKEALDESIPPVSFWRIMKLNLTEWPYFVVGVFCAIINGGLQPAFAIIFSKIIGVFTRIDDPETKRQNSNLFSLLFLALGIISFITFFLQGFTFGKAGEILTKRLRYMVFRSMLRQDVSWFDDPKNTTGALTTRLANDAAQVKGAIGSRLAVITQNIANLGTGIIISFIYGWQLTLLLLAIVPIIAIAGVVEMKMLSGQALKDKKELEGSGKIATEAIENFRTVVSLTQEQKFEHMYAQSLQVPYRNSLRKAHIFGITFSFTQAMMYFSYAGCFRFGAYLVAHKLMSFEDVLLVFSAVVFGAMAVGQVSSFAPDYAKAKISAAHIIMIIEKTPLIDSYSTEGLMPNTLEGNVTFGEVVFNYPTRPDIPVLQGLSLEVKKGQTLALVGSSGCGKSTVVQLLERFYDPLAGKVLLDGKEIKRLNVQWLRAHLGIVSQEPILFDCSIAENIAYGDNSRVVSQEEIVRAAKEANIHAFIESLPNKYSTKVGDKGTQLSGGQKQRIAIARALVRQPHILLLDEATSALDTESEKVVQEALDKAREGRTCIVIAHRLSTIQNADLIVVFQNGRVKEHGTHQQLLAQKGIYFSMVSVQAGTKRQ
UniProt P08183, whole entry G185V/S893A: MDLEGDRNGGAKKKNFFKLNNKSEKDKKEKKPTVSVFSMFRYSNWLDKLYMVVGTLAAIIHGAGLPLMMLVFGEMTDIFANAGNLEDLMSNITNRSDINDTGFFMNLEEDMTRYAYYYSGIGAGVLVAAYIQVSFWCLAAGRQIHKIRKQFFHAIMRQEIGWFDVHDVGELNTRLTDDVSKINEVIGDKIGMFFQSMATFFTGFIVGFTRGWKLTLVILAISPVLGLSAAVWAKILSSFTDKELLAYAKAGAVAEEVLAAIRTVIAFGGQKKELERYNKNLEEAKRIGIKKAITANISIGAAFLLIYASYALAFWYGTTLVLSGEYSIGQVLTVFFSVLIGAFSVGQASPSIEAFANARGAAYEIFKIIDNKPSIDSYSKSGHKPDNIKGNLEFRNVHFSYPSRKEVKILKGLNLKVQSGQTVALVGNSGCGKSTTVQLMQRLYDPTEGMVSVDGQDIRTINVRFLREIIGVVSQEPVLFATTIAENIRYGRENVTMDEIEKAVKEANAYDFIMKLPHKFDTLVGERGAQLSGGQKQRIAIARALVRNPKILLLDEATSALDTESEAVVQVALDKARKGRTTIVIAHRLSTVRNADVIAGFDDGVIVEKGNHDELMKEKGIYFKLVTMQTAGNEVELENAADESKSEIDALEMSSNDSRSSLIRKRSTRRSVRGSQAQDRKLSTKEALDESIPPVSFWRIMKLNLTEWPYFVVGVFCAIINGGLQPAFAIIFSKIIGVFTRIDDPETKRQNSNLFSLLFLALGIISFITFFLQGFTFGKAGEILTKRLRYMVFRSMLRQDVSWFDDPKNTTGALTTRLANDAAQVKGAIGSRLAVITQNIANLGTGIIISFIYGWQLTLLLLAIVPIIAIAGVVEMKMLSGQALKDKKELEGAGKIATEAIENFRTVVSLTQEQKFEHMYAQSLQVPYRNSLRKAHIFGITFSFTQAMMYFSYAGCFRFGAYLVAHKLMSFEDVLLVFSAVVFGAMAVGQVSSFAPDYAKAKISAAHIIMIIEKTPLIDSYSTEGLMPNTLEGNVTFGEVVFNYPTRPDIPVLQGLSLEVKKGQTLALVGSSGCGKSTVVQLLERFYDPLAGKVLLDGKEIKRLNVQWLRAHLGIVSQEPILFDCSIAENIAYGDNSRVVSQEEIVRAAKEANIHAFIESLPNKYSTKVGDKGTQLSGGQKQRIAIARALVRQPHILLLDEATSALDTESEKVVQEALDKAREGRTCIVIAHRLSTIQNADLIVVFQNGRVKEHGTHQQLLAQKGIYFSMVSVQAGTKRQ

Data set [1] concerns the target P-glycoprotein (MDR11199, G1199A) in recombinant LLC-PK1 cells (Homo sapiens, UniProt P08183, S400N).
The test system of the next data set is LLC-PK1 control cells. The data set is described as follows: Transepithelial transport assay of R123.
Data set [2] deals with P-glycoprotein (MDR1wt) in recombinant LLC-PK1 cells (Homo sapiens, UniProt P08183, G185V/S893A). In words: Transepithelial transport assay of R123. As to conditions: R123 + 1 μM GF120918.

Rhodamine-123 [R123]: the “efflux transport lower in MDR11199 than in MDR1wt cells” value in data set [1] is on record as “approximately 4.5 fold”. Besides, the “higher accumulation of R123 in MDR11199 cells” value in data set [1] is on record as roughly 4.75 fold. For the same substance, the PappB→A/PappA→B stood at 0.903 ± 0.200 in the data set on LLC-PK1 control cells (1 μM R123 alone), 1.01 ± 0.33 with LLC-PK1 control cells (R123 + 1 μM GF120918) and 0.961 ± 0.216 in data set [2].
